The target in the test is MASP-2 (CCP1-CCP2-SP) (Homo sapiens (Human), UniProt O00187). The test is classed as biochemical. Particulars: read-out: MASP-2 Ki.

By UniProt entry, the sequences of proteins in these tests, tags left out. Residues count along the entry.
UniProt O00187, 445-686: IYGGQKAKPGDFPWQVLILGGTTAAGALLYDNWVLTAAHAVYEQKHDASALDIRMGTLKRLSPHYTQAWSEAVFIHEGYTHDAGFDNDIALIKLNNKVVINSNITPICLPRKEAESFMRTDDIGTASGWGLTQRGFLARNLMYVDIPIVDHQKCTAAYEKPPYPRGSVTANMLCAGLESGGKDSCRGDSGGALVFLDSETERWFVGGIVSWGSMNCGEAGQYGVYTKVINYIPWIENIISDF

One may read the Ki as a measure of affinity in units of concentration, obtained from inhibition or displacement.

Where a name gives a salt, the structure may show the parent alone.

For `Cc1nc(N)ccc1CNC(=O)C(C)NC(=O)[C@H]1C[C@H](c2cccc(-c3ccccc3)c2)CN1` (stereo in doubt) [compound 1360, (2R,4R)-4-([1,1′-Biphenyl]-3-yl)-N—((R)-1-(((6-amino-2-methylpyridin-3-yl)methyl)amino)-1-oxopropan-2-yl)pyrrolidine-2-carboxamide Di-trifluoroacetate salt], the Ki is below 500 nM.

These data come from patent US11584714B2 (dated 2023).
